By UniProt entry, the sequences of proteins in these tests, tags left out.
UniProt Q99705, whole entry: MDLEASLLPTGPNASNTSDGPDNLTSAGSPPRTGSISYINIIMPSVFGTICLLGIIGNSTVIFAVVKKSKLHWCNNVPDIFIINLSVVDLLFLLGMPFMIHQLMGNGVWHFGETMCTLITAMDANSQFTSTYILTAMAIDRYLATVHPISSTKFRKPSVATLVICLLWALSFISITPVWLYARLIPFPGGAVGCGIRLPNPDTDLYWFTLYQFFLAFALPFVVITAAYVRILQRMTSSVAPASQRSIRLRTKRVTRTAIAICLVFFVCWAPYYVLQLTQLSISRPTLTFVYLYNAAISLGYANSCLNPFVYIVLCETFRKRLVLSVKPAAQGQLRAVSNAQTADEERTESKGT

According to ChEMBL document CHEMBL1140323, “Biaryl ureas as potent and orally efficacious melanin concentrating hormone receptor 1 antagonists for the treatment of obesity” (J Med Chem, 2005):

The compounds below were run against Melanin-concentrating hormone receptor 1 (Homo sapiens, UniProt Q99705) (assay: Inhibition of human melanin concentrating hormone receptor 1).
In the case of O=C(Nc1cc(Cl)cc(Cl)c1)N(c1ccc(-c2cccc(Cl)c2)cc1)C1CCN(C2CCCC2)CC1, the Ki is reported as 12.5 nM.
For O=C(Nc1cc(Cl)cc(Cl)c1)N(c1ccc(-c2cccc(OC(F)(F)F)c2)cc1)C1CCN(C2CCCC2)CC1, the Ki was 20 nM.
For N#Cc1cccc(-c2ccc(N(C(=O)Nc3ccccc3)C3CCN(C4CCCC4)CC3)cc2)c1, the Ki was 233 nM.
N#Cc1cccc(-c2ccc(N(C(=O)Nc3cc(Cl)cc(Cl)c3)C3CCN(C4CCCC4)CC3)cc2)c1 showed a Ki of 2.6 nM.
N#Cc1cccc(-c2ccc(N(C(=O)Nc3ccc(F)c(C(F)(F)F)c3)C3CCN(CC4CC4)CC3)cc2)c1 gave a Ki of 4 nM.
Work on COc1cccc(NC(=O)N(c2ccc(-c3cccc(C#N)c3)cc2)C2CCN(C3CCCC3)CC2)c1 yielded a Ki of 98 nM.
N#Cc1cccc(-c2ccc(N(C(=O)Nc3ccc(F)c(Cl)c3)C3CCN(C4CCCC4)CC3)cc2)c1 gave a Ki of 1.6 nM.
Compound N#Cc1cccc(-c2ccc(N(C(=O)Nc3ccc(F)c(C(F)(F)F)c3)C3CCN(C4CCCC4)CC3)cc2)c1 has a Ki of 1.9 nM.
O=C(Nc1cc(Cl)cc(Cl)c1)N(c1ccc(-c2cccc(C(F)(F)F)c2)cc1)C1CCN(C2CCCC2)CC1 was tested, and the Ki was 197 nM.
N#Cc1cccc(-c2ccc(N(C(=O)Nc3cccc(Cl)c3)C3CCN(C4CCCC4)CC3)cc2)c1 showed a Ki of 5.8 nM.
Compound CCN1CCC(N(C(=O)Nc2ccc(F)c(C(F)(F)F)c2)c2ccc(-c3cccc(C#N)c3)cc2)CC1 has a Ki of 7.1 nM.
With COc1ccc(NC(=O)N(c2ccc(-c3cccc(C#N)c3)cc2)C2CCN(C3CCCC3)CC2)cc1 the Ki was 139 nM.

Only a part of the results on these compounds is given; other tests are left out.
